The values below are quoted from earlier work in PMC10786692 (The Journal of Clinical Investigation, 2024).

The test system of this series is DDR-defective tumors. As to conditions: in vivo; cited from earlier work.

SMILES strings stand for the structures.

Regarding `C[C@@H]1COCCN1c1cc(-c2ccnn2C)c2ccnc(-c3ccn[nH]3)c2n1` [BAY1895344], the “Patients with durable responses” value is 4 of 11.
